The values that follow come from ChEMBL document CHEMBL1127409 (J Med Chem, 1994).

Molecules are shown by their SMILES.

This assay relates to Glutamate NMDA receptor (Mus musculus). Put plainly: compound was tested for effective dose against NMDA by intra peritoneal administration. It counts as functional, organism-based.

With `O=C(CC1CCc2cc(Br)cc3[nH]c(=O)c(=O)n1c23)Nc1ccccc1` (stereo unspecified), the ED50 (commonly the dose that gives a 50% effect, or the effect in half of the subjects) is over 100 mg/kg.
